Structures are written as SMILES. The entries are a selection whose mix differs from that of the whole data set. Inconclusive results are not listed. Activity calls are given as the source filed them. Calls come from the whole dose curve; as a rule, active = well fitted cell-killing curve with a large enough effect; inconclusive = small, poorly fitted or top-dose-only effect, or effect the other way; inactive = flat fitted curve, though single readings scatter.
Potency is the fitted concentration of half-maximal effect.

The test can be described thus: qHTS for induction of synthetic lethality in tumor cells producing 2HG: qHTS for the HT-1080-NT fibrosarcoma cell line.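 For activity, negative = less viability: 0% = DMSO-treated cells and -100% = media-only wells without cells.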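 Note: NT is the 2HG producing partner of a matched IDH1 knockdown line; nearly all actives have a fitted effect of over 55% in size.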 To be noted: HT-1080-NT fibrosarcoma viability, CellTiter-Glo ATP luminescence, 48 h; series mostly up to 46.1 µM; activity, negative = less viability: at the top concentration. (qHTS replaces the single test concentration by a dilution series.)
On to `O=C(OC1CN2CCC1CC2)c1cccc2[nH]cnc12` (centres undefined), for which the “activity, negative = less viability” value was inactive: 3.3%.
Still for that read-out and setting: the same measure for `CC(C)NC(=O)NP(=O)(Oc1ccccc1)Oc1ccccc1`: inactive: 7.1%; for `CC(C)c1ccc(OP(=O)(Nc2ccccn2)Oc2ccccc2F)cc1` (centres undefined): inactive: 0.189%; for `COC(=O)C1(C)COP(=O)(N2CCCCCC2)OC1` (centres undefined): inactive: 21.1%.
Still for that read-out and setting: the result for `ClCCSc1nnc(-c2cccnc2)o1` reads inactive: 16.4%; that for `Cc1ccc2nc3c(c(C)c2c1)CC(C(Cl)Cl)S3` (centres undefined), inactive: -13.8%.
On the same count and under the same terms, the result for `[N-]=[N+]=NC1CCCCC1NC(=O)c1cc([N+](=O)[O-])cc([N+](=O)[O-])c1` (centres undefined) reads inactive: -27.5%; that for `Cc1ccc(OP(=O)(Nc2ccc([N+](=O)[O-])cn2)Oc2ccc(C)cc2)cc1`, inactive: 13.4%; that for `C[As](=O)(O)c1cccc(C(=O)O)c1`, inactive: -6.36%.
Regarding `O=[As](O)(c1ccc(O)cc1)c1ccccc1O`, the “activity, negative = less viability” value is inactive: 12%.
On the same count and under the same terms, the result for `COc1ccc(N/C(=N/P(=O)(N2CCOCC2)N2CCOCC2)N2CCOCC2)cc1` reads inactive: 13.2%; that for `O=[N+]([O-])c1cc(Oc2ccc([N+](=O)[O-])cc2C(F)(F)F)cc([N+](=O)[O-])c1`, inactive: 1.52%.
Same read-out and setting: the result for `COc1ccc2nc(NP(=O)(c3ccccc3)c3ccccc3)sc2c1` reads inactive: -8.51%; that for `COc1cc(I)ccc1[As](=O)(O)O`, inactive: -18.9%.
The same measure, in the same setting: the result for `O=P1(N(CCCl)CCCl)OCCCN1CCCl` (centres undefined) reads inactive: 2.82%.
Consider `O=P1(N(CCCl)CCCl)Nc2ccccc2N1`, for which the “activity, negative = less viability” value is inactive: -2.6%.
The same measure, in the same setting: the same measure for `Cc1cc(=O)[nH]c(N[N+](=O)[O-])n1`: inactive: -1.68%; for `Cc1c2c(nc3ccccc13)SC(C(Cl)Cl)C2` (centres undefined): inactive: 5.09%; for `CCC(C)N(CC(C)C)C(=S)SC(NC(C)=O)C(Cl)(Cl)Cl` (centres undefined): inactive: -15.7%.
Same read-out and setting: the same measure for `CCOC(=O)c1ccc(NC(=O)C(C)(CCl)SC)cc1` (centres undefined): inactive: 1.94%; for `O=C(OC1CN2CCC1CC2)c1cccc([N+](=O)[O-])c1` (centres undefined): inactive: 0.494%; for `O=C(COc1ccccc1)OC1CN2CCC1CC2` (centres undefined): inactive: 12.2%.
The same measure, in the same setting: the same measure for `O=C(Nc1ccncc1[N+](=O)[O-])c1ccc([N+](=O)[O-])cc1[N+](=O)[O-]`: inactive: -14.5%; for `O=C(O)C(=O)c1ccc(N(CCCl)CCCl)cc1`: inactive: -4.81%.
For the compound `COP1(=S)c2c(C)nn(CCC#N)c2N=C(c2ccc(F)cc2)N1C` (centres undefined), the “activity, negative = less viability” value is inactive: -3%.
Still for that read-out and setting: the same measure for `COC(=O)C1(C)COP(=O)(N2CCCC2)OC1` (centres undefined): inactive: 25.5%; for `O=[N+]([O-])c1ccc(Nc2ccc(Oc3ccc([N+](=O)[O-])cc3[N+](=O)[O-])cc2)c([N+](=O)[O-])c1`: inactive: 3.78%; for `O=P(Nc1ccccn1)(c1cccc2ccccc12)c1cccc2ccccc12`: inactive: -27.1%.
Same read-out and setting: the result for `Cc1cc(SC(NC=O)C(Cl)(Cl)Cl)ncn1` (centres undefined) reads inactive: -2.58%; that for `CCOC(=O)Nc1cccc([As](=O)(O)O)c1`, inactive: 13.8%.
Still for that read-out and setting: the same measure for `Cc1cc(SC(NC(=O)c2ccccc2)C(Cl)(Cl)Cl)nc(C(C)C)n1` (centres undefined): inactive: -8.44%.
On to `COP(=O)(OC)N1CC1c1ccccc1` (centres undefined), for which the “activity, negative = less viability” value was inactive: 3.18%.
Still for that read-out and setting: the same measure for `CC1CCNP(=O)(N(CCCl)CCCl)O1` (centres undefined): inactive: -0.563%; for `O=C(O)C(O)c1ccc(N(CCCl)CCCl)cc1` (centres undefined): inactive: -7%.
In the case of `O=P1(Nc2ccc(Br)cn2)COc2ccccc2OC1`, the “activity, negative = less viability” value is inactive: 3.62%.
Still for that read-out and setting: the result for `NS(=O)(=O)c1cccc(NC(=O)COC(=O)C(O)(c2ccccc2)c2ccccc2)c1` reads inactive: -3.55%.
Same read-out and setting: the result for `Cc1ccc(OCC(=O)OC2CN3CCC2CC3)cc1` (centres undefined) reads inactive: 11.9%; that for `O=[As](O)(c1cccs1)c1cccs1`, inactive: -0.333%.
The same measure, in the same setting: the same measure for `Nc1cccc([As](=O)(O)c2ccccc2)c1`: inactive: 0%; for `O=P1(Nc2ncccn2)COc2ccccc2OC1`: inactive: 17%; for `Cc1ccc(S(=O)(=O)N(CCCN)CCCc2c(C)nc(N)[nH]c2=O)cc1`: inactive: -14.1%.
As to `O=C(/C=C/c1ccccc1)OC1CN2CCC1CC2` (centres undefined), the “activity, negative = less viability” value is inactive: 1.54%.
On the same count and under the same terms, the result for `CCCC1OP(=O)(Nc2ccccc2)OCC1CC` (centres undefined) reads inactive: 1.28%.
On the same count and under the same terms, the same measure for `Cc1nn(-c2ccccc2)c2c1P(=O)(N1CCOCC1)N(C)C(c1ccccc1)=N2` (centres undefined): inactive: 18.8%.
Consider `CC1CCC(C(C)C)C(OP(=O)(Nc2ccccn2)c2ccccc2)C1` (centres undefined), for which the Potency is active: 23.1 µM.
As for `Cc1ccc(C(=O)OC2CN3CCC2CC3)cc1` (centres undefined), the “activity, negative = less viability” value is inactive: -16.9%.
As for `CC1(CBr)Cn2c(nc3ccccc3c2=O)S1` (centres undefined), the “activity, negative = less viability” value is inactive: 2.24%.
Still for that read-out and setting: the same measure for `CC(C)/C=N\N=C(\N)N[N+](=O)[O-]`: inactive: -2.67%; for `CN(C(=O)Cc1ccc(Cl)c(Cl)c1)[C@@H]1CCCC[C@H]1N1CCCC1`: inactive: -15.1%.
On the same count and under the same terms, the result for `COc1ccccc1CNC(=O)COC(=O)C(O)(c1ccccc1)c1ccccc1` reads inactive: 1.61%.
The same measure, in the same setting: the result for `O=P1(N(CCCl)CCCl)NCCC(C(F)(F)F)O1` (centres undefined) reads inactive: -1.32%; that for `Clc1n[nH]nc1-c1nn[nH][15n]1`, inactive: -3.26%; that for `CC(C)(C)C(=O)NC(Sc1ncccn1)C(Cl)(Cl)Cl` (centres undefined), inactive: 0%.
For `CN(CCCl)Cc1cc(Cl)c(NC2=NCCN2)c(Cl)c1`, the “activity, negative = less viability” value was inactive: -10.4%.
Consider `CCOP(=O)(Nc1ccc(C)cn1)OCC`, for which the “activity, negative = less viability” value was inactive: 1.33%.
For `O=P1(Nc2ccccn2)COc2ccccc2OC1`, the “activity, negative = less viability” value is inactive: 8.85%.
Same read-out and setting: the result for `CCOP(=O)(NC(=NC(C)c1ccccc1)NC(C)c1ccccc1)OCC` (centres undefined) reads inactive: 6.9%; that for `COc1cc(C2NCCC3(OCCO3)C2(C)C)cc(OC)c1OC` (centres undefined), inactive: -0.176%; that for `CCOP(=O)(Nc1cccc2ccccc12)OCC`, inactive: 6.01%.

These data come from PubChem BioAssay AID686970 (National Center for Advancing Translational Sciences (NCATS), 2013).
